In ChEMBL document CHEMBL6087484, “Discovery of Novel Small-Molecule Inhibitors Disrupting the MTDH-SND1 Protein-Protein Interaction” (J Med Chem, 2025):

Assays:
[1] = tested on: HEK-293T; test: Inhibition of SND1-NLuc/CLuc-MTDH (unknown origin) interaction expressed in HEK-293T cells assessed as inhibition efficiency by measuring fluorescent activity at 5 uM measured after 48 hrs by Split luciferase assay relative to control; format: cell-based; settings: Homo sapiens
[2] = tested on: HEK-293T; test: Inhibition of SND1-NLuc/CLuc-MTDH (unknown origin) interaction expressed in HEK-293T cells assessed as inhibition efficiency by measuring fluorescent activity at 1 uM measured after 48 hrs by Split luciferase assay relative to control; format: cell-based; settings: Homo sapiens
[3] = Toxicity in SPF BALB/c mouse xenografted with human MCF7 cells assessed as change in body weight at 10 to 60 mg/kg, ip measured after 14 days of treatment; format: organism-based; settings: in vivo, 336 h, dose 10-60 mg/kg, time 14 day
[4] = Toxicity in SPF BALB/c mouse assessed as pathological changes in heart at 250 to 1000 mg/kg, ip measured for 14 days by HE staining based assay; format: organism-based; settings: in vivo, 336 h, dose 250-1000 mg/kg, time 14 day
[5] = Toxicity in SPF BALB/c mouse assessed as pathological changes in liver at 250 to 1000 mg/kg, ip measured for 14 days by HE staining based assay; format: organism-based; settings: in vivo, 336 h, dose 250-1000 mg/kg, time 14 day
[6] = Toxicity in SPF BALB/c mouse assessed as pathological changes in lung at 250 to 1000 mg/kg, ip measured for 14 days by HE staining based assay; format: organism-based; settings: in vivo, 336 h, dose 250-1000 mg/kg, time 14 day
[7] = Toxicity in SPF BALB/c mouse assessed as pathological changes in kidney at 250 to 1000 mg/kg, ip measured for 14 days by HE staining based assay; format: organism-based; settings: in vivo, 336 h, dose 250-1000 mg/kg, time 14 day
[8] = Toxicity in SPF BALB/c mouse assessed as change in body weight at 250 to 1000 mg/kg, ip measured for 14 days; format: organism-based; settings: in vivo, 336 h, dose 250-1000 mg/kg, time 14 day

Compound | inhibition [1] | inhibition [2] | further results
COc1ccc(OC)c(S(=O)(=O)Nc2cccc3cccnc23)c1 | 25.6% | 19.1% | –
COc1ccc(Br)cc1S(=O)(=O)Nc1cccc2cccnc12 | 84.5% | 24.2% | –
O=S(=O)(Nc1cccc2ocnc12)c1cccc2cccnc12 | – | 24.7% | –
COc1ccc(F)cc1S(=O)(=O)Nc1cccc2cccnc12 | 76.5% | 3.87% | –
O=S(=O)(Nc1cccc2cc[nH]c12)c1cccc2cccnc12 | 19.8% | 3.95% | –
O=S(=O)(Nc1cccc2cccnc12)c1ccccc1OC(F)(F)F | 74.8% | < 1% | –
O=S(=O)(Nc1cccc2cccnc12)c1cccc2cccnc12 | 95.2% | 51.2% | –
O=S(=O)(Nc1cccc2cccnc12)c1cc(F)ccc1F | 100% | 6.23% | –
COC(=O)c1ccccc1S(=O)(=O)Nc1cccc2cccnc12 | < 1% | < 1% | –
Cc1cnc2c(S(=O)(=O)Nc3cccc4cccnc34)cccc2c1 | 96.2% | 26.9% | –
O=S(=O)(Nc1cccc2cccnc12)c1ccccc1C(F)(F)F | 95% | < 1% | –
O=S(=O)(Nc1cc(F)cc2cccnc12)c1cccc2cccnc12 | – | – | Activity [3]: Non-toxic; Activity [4]: Non-toxic; Activity [5]: Non-toxic; Activity [6]: Non-toxic; Activity [7]: Non-toxic; Activity [8]: Non-toxic
O=S(=O)(Nc1cccc2cn[nH]c12)c1cccc2cccnc12 | 28.9% | 3.05% | –
